{
  "sequences": {"note": "By UniProt entry, the sequences of proteins in these tests, tags left out. Residues count along the entry.", "UniProt O70212, 20-490": "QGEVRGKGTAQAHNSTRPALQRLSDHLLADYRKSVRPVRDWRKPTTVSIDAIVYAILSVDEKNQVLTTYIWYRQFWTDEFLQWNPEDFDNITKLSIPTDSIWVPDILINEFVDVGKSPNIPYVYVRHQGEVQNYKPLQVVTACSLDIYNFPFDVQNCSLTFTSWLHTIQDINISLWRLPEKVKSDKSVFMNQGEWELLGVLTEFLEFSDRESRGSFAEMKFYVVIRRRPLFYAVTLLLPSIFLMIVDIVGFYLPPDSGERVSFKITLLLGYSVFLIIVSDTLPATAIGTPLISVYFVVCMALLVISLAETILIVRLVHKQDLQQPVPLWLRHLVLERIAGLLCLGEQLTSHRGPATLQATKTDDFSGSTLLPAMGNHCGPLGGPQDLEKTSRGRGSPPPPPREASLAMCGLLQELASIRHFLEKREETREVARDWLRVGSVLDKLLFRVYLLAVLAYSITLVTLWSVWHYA"},
  "source": "patent US4910193A",
  "about": "“Treatment of gastrointestinal disorders” (Sandoz Ltd., priority 1987, dated 1990)",
  "target": "T1, low affinity 5-HT receptor (Cavia porcellus, UniProt O70212)",
  "T1 construct": "The isolated longitudinal muscle of the guinea pig ileum with its adhering myenteric plexus; from tissue; host or cells: longitudinal muscle strips of ileum with myenteric plexus, male guinea pigs",
  "test": "Isolated longitudinal muscle of guinea pig ileum, 5-HT contraction, low affinity receptor",
  "settings": "agonist, in words",
  "data": [
    {"molecule": "NCCc1c[nH]c2ccc(O)cc12", "note": "[Compound 5-HT, reference compound]", "values": [
      {"measurement": "contractile effect of 5-HT on longitudinal muscle strip", "value": "concentration-dependent contractile effect"}
    ]}
  ]
}
